Biological target: T1, SPARC (Homo sapiens, UniProt P09486)
T1 sequence (P09486 18-303): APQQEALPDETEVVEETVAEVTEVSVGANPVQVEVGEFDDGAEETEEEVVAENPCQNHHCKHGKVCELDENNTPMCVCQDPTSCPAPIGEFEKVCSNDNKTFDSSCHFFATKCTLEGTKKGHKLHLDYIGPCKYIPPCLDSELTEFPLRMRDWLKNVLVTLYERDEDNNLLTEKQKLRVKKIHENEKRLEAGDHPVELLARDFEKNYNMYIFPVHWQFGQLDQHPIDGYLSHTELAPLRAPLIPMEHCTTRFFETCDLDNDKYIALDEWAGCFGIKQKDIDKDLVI
Test: binding of fluorescent-tagged albumin to filter immobilized SPARC
Settings: Alexa 488 labeled albumin; as HSA concentration
Experimental: Purified SPARC was immobilized onto PVDF membrane and reacted with increasing concentration of Human Serum Albumin/Bovine Serum Albumin (HSA/BSA) which has been Alexa 488 fluorochrome labeled.
Specifically the following protocol is used: • 1) Incubate membrane with 30% methanol for 5 min, using Sterile MultiScreen (HTS) 96-well Filtration system from Millipore (Cat. No.: MSIPS4510); • 2) Wash twice with Hanks Balance Salt Solution (HSBS); • 3) Incubate with 100 μl of 5 μg/100 μl solution of purified SPARC in HSBS; • 4) After 1 hour at 25° C., wash off twice with HSBS; • 5) Block with 5% milk overnight (5% Non-fat dry milk (Carnation) in 1×TBS) at 4° C.; • 6) Wash twice with HSBS; • 7) Incubate with albumin (resuspend 5 mg of BSA-Alexa fluor 488 (Molecular Probes) with 1 ml of HSA injection 25%, BAXTER); • 8) After 1 hour, wash three times with HSBS; • 9) Read with a fluorometer using detection wavelength for Alexa fluor 488; • 10) Specific binding is total binding minus binding to membrane without SPARC; and • 11) Plot specific binding versus HSA concentration (%).

HSA: Human Serum Albumin/Bovine Serum Albumin, Alexa 488 fluorochrome labeled
IC50 of binding to immobilized SPARC: ~5 % (weight/volume)
